Experimental data reported in article PMC11272611, “Phase Ib and pharmacokinetics study of alpelisib, a PIK3CA inhibitor, and capecitabine in patients with advanced solid tumors” (Frontiers in Oncology, 2024).

Assay: Pharmacokinetics of alpelisib and capecitabine in plasma (LC-MS/MS, non-compartmental)
Assay type: in vivo
Conditions: human, oral, Dose level 2 (n=3): alpelisib 300mg+capecitabine 1250mg/m^2, day 1 of cycle 1, mean (range); for AUC(0-t): read-out: AUC0-6h
Experimental: The pharmacokinetic (PK) analysis was conducted in all patients who received at least one dose of alpelisib and capecitabine combination therapy. Blood samples were collected at specified time points, including pre-dose, 1, 2, 4, and 6 hours post-dose, on day 1 of cycle 1. Measurements of alpelisib and capecitabine were carried out with a validated LC-MS/MS assay. PK parameters, including maximum plasma concentration (Cmax), time to reach maximum plasma concentration (tmax), area under the plasma concentration-time curve (AUC), and elimination half-life (t1/2), were calculated using non-compartmental methods. […] The data were presented as the mean (range) and standard deviation (SD).

Compound	Cmax [ng/mL]	half-life [h]	AUC(0-t) [ng·h/mL]
Cc1nc(NC(=O)N2CCC[C@H]2C(N)=O)sc1-c1ccnc(C(C)(C)C(F)(F)F)c1 [alpelisib]	2040	4.3	8190
CCCCCOC(=O)Nc1nc(=O)n([C@@H]2O[C@H](C)[C@@H](O)[C@H]2O)cc1F [capecitabine]	7000	0.73	8710
